From patent publication US9364474B2, “Method for treatment of neurologic dysfunction” (MedDEV, Inc., priority 2004, dated 2016)

Test system: patient diagnosed with chronic schizophrenia
Settings: human, in vivo

Cc1cc2c(s1)Nc1ccccc1N=C2N1CCN(C)CC1 [Zyprexa]
side effects of prior medication: extremely lethargic and obese
